# Measured values: US20080058411A1, “Methods For Treating Resistant Or Refractory Tumors” (GPC Biotech AG, priority 2004, published 2008)
# Tested on: NCI-Adr resistant subline
# Test: SRB cytotoxicity assay, P-glycoprotein expressing NCI-Adr resistant subline, with and without verapamil
# Type: cell-based
# Settings: ratio of the means of the resistant cells compared to the sensitive cells
smiles,measurement,value
"N.N.[Cl][Pt][Cl] [Cisplatin, cisplatin]",RR (relative resistance) NCI-Adr resistant −verapamil vs +verapamil,0.93
"CC(=O)O[C@@]12CO[C@@H]1C[C@H](O)[C@@]1(C)C(=O)[C@H](O)C3=C(C)[C@@H](OC(=O)[C@H](O)[C@@H](NC(=O)OC(C)(C)C)c4ccccc4)C[C@@](O)([C@@H](OC(=O)c4ccccc4)[C@H]21)C3(C)C [Taxotere, N-debenzoyl-N-tert-butoxycarbonyl-10-deacetyl paclitaxel]",RR (relative resistance) NCI-Adr resistant −verapamil vs +verapamil,33
